Laboratory results taken from patent publication US20150151011A1, “Preparation of Technetium-99M Tricarbonyl Labeled Glycine Monomer or Oligomer Containing Probes That Have Biomolecules and Its Application as Imaging Complex-Composition” (KOREA ATOMIC ENERGY RESEARCH INSTITUTE, priority 2012, published 2015).

Tests used:
[1] = Octanol-water partition coefficient of technetium-99m tricarbonyl glycines; type: physicochemical; details: n-octanol / 0.05 M PBS pH 7.4, measured in triplicate
Protocol: In order to predict the in vivo residence and degradation rate of technetium-99m tricarbonyl glycin complexes, octanol-water partition coefficients were measured in triplicate as follows. To a mixture of 500 μl of nitrogen-purged 0.05 M PBS (phosphate-buffered saline, pH 7.4) and 500 μl of n-octanol was added 10 μl of technetium-99m tricarbonyl glycine, glycine trimer, or glycine pentamer, followed by vortexing for 3 min. Centrifugation at 3,000×g for 5 min in a SORVALL FRESCO centrifuge (Asheville, N.C., USA) gave two distinct phases. From each of the PBS layer and the octanol layer was taken 20 μl which was then measured for radioactivity using a well-type NaI (TI) scintillation detector. The coefficient is calculated according to the following equation.
Log p=log(octanol(cpm)/water(cpm)) <Equation>

[2] = Micro-SPECT/CT imaging of technetium-99m tricarbonyl glycine complexes in animal model; type: in vivo, ICR mice; details: mice, intravenous injection, 37 MBq, FIG. 2
Excerpt: (1) Materials: Carbon monoxide (99.5%) was provided from Daehan Gas (Seoul, Korea) and purified using an oxygen trap before use. Technetium-99m was produced as pertechnetate using Unitech Tc-99m generator (Samyoung Unitech. Co. Ltd., Korea) in 0.9% sodium chloride. glycin, Gly-Gly-Gly (glycine trimer), and Gly-Gly-Gly-Gly-Gly (glycine pentamer) were purchased from Sigma Chemical Co. (St. Louis, USA). (2) Animal test: Female germ-free ICR mice (7 weeks old) were purchased from Orient, Inc. (Seoul, Korea) and acclimated for one week before use in experiments. The mice were maintained at a relative humidity of 50±5% at a temperature of 23±2° C. on a 12-h light-dark cycle, allowed to have access to food and water ad libitum, and acclimated for at least 1 week prior to usage. All animal experiments were conducted after approval by the Institute Animal Care and Use Committee of the Korean Atomic Energy Research Institute.
For Micro-SPECT/CT imaging, mice were scanned using the Inveon small-animal SPECT/CT system equipped with a single pinhole collimator (Siemens Medical Solutions, Knoxville, Tenn., USA). The mice were anesthetized with 2% isoflurane (prone position in a cradle) and intravenously injected with the technetium-99m tricarbonyl at a dose of 37 MBq 30 min before Micro-SPECT imaging. […]

With technetium-99m tricarbonyl-glycine the “Octanol/Water Partition Coeffi. (Kow logP)” value [1] was −0.48 ± 0.00, the clearance from blood ([2]; 30 min before Micro-SPECT imaging) was “rapid blood clearance” and the “radioactivity in the liver” value ([2]; SPECT/CT) was “some radioactivity was detected in the liver”.
